# scFv variants of Ab-14 (heavy chain) against a SARS-CoV-2 spike peptide

Target: peptide PDVDLGDISGINAS, taken from heptad repeat 2 (HR2) of SARS-CoV-2 spike.

The variants keep the light chain, the linker and the frameworks of Ab-14 (scFv order VH, a 15-residue (Gly4Ser)3 linker, VL).
VH: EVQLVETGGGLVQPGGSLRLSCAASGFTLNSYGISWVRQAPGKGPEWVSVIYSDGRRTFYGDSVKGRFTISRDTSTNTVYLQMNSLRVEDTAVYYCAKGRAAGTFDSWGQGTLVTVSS
VL: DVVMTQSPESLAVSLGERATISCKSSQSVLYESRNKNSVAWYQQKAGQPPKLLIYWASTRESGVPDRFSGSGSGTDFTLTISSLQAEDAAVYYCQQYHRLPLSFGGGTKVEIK

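Phage display of a naive human antibody library on the peptide gave the parent. These sequences belong to a second round, designed from the earlier measurements on random variants of the parent. Several design methods are mixed in this list. In AlphaSeq, yeast of one mating type display the scFv and yeast of the other type display the target. Mating (16 h, 30 °C) was followed by selection of diploids and sequencing of their barcodes. Each replicate has its own calibration line, from reference interactions of the BCL2 family. Mating was done six times.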

Substitutions are numbered in sequence along the VH above, starting at 1 (not Kabat). This list holds designs with at most six substitutions. The Kd shown is the geometric mean over detected replicates; a lower Kd is a better binder. "no signal" means that the variant was in the library but no mating with the target was seen in any replicate; the authors take this as a sign of poor binding, and no number exists.

T28S/R56K/S63R/R100Q/A101T: 3.7 nM (6 of 6 replicates).
F27C/R56Q: no signal (0 of 6 replicates).
T28D/S53P/D62H/F105N/D106K: no signal (0 of 6 replicates).
G26K/N30S/R56M/F59A: no signal (0 of 6 replicates).
T28H/S53A/R100Q: 9.0 nM (6 of 6 replicates).
Y32H/R56L/A101T: 3.1 nM (6 of 6 replicates).
R100Q/A101L/D106M: no signal (0 of 6 replicates).
T28S/G61H/A101Q: 1.8 nM (3 of 6 replicates).
T28N/R56L/G61A: 2.5 nM (6 of 6 replicates).
T28E/G61H/A101M: 15 nM (5 of 6 replicates).
F27R: no signal (0 of 6 replicates).
T28E/S31E/R56I/A101T: 600 pM (6 of 6 replicates).
T28D/R100M/A101E: 3.7 nM (6 of 6 replicates).
G61Q/S63F: no signal (0 of 6 replicates).
S31D/F59M/G61L: 17 nM (6 of 6 replicates).
T28D/R100A/G103S/S107I: 15 nM (2 of 6 replicates).
T28E/R100S/A101T/S107V: 960 pM (6 of 6 replicates).
T28S/K65V/A101E: 1.9 nM (6 of 6 replicates).
S31E/G103W/D106I/S107L: no signal (0 of 6 replicates).
R100K/S107H: 220 nM (5 of 6 replicates).
R56K/G61I/A101E/S107T: 3.6 nM (2 of 6 replicates).
G61S/T104F: no signal (0 of 6 replicates).
G61E/S63D/S107L: no signal (0 of 6 replicates).
T28S/S31E/A101L/S107T: 62 pM (6 of 6 replicates).
T28N/G61F/A101T: 53 nM (1 of 6 replicates).
T28D/N30E/S63A/F105G: no signal (0 of 6 replicates).
T28M/R100P: no signal (0 of 6 replicates).
T28N/R100Q/S107N: 21 nM (1 of 6 replicates).
T28D/S63A/R100Q: 1.6 nM (6 of 6 replicates).
S31D/G33C/G99A/G103L/D106I: no signal (0 of 6 replicates).
T28E/G61A/R100K/A101N: 17 nM (6 of 6 replicates).
F27E/S31E: 27 nM (6 of 6 replicates).
G61L/R100Q/A101L: no signal (0 of 6 replicates).

The parent sequence was in this pool as ten entries: three were never detected, three once, and four in most replicates, with averages from 2.2 nM to 240 nM. The authors' rule: three or more of the six replicates give a measured affinity, fewer mean a poor binder. Background: pairings of all heavy chain designs with three empty control strains gave a value in 1% of cases (median 120 nM, 5th percentile 7.0 nM). Values in that range, when seen in few replicates, are hard to tell from nonspecific mating. The range of this assay differs from that of the first round, and the authors advise against merging the two.

The measurements come from Li et al. 2023 (doi:10.1038/s41467-023-39022-2) through the FLAb antibody collection.